We go through three molecules from patent US20260055079A1, “PHTHALAZINONE COMPOUNDS AS PARP7 INHIBITORS” (AZKARRA THERAPEUTICS, INC., priority 2022, published 2026).

Sequences of proteins named here, by UniProt entry; tags and fusion partners are left off. Residues count along the entry.
UniProt Q7Z3E1, whole entry: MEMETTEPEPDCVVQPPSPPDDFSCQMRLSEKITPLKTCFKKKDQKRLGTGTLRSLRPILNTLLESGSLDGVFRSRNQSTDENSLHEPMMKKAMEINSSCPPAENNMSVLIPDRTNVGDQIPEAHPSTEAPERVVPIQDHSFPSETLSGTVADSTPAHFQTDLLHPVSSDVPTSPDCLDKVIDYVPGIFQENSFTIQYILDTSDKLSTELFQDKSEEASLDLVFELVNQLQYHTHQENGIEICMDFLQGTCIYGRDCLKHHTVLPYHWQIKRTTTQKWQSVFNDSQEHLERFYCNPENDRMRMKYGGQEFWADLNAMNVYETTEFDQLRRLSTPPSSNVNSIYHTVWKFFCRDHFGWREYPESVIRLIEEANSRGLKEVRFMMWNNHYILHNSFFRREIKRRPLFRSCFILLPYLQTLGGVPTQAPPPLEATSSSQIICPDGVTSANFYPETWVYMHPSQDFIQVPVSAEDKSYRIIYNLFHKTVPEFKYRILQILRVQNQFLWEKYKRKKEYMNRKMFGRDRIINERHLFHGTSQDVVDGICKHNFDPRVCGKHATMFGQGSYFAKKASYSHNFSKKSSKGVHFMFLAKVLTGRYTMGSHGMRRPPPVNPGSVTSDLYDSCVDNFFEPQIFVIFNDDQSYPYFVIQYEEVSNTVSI
UniProt Q9Y6F1, whole entry: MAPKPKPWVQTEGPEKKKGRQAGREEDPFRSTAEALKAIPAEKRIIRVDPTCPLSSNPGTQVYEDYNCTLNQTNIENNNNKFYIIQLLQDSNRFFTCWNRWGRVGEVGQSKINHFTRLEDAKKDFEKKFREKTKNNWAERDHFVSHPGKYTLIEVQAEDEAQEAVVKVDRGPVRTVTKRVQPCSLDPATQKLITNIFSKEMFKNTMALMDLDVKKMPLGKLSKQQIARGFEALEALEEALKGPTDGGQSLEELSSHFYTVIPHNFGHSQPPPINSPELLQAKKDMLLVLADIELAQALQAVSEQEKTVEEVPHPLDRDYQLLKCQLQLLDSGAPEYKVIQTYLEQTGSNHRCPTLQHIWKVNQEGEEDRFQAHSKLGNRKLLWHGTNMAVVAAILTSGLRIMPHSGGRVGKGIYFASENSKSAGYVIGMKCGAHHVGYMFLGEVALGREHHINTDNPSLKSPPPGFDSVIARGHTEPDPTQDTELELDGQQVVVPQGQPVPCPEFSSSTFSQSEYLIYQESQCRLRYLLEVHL
UniProt Q9H0J9, 484-698 limits assumed: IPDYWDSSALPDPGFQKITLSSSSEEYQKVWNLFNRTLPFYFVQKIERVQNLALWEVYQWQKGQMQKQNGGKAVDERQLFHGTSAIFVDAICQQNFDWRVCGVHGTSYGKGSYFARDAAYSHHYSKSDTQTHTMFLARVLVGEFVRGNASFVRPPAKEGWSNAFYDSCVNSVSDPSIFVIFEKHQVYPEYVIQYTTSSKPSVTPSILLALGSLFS

By IC50 is commonly meant the concentration needed to halve the response being measured. As a reminder, the GI50 is the concentration at which growth is held to half of that of the control.

Assay [1] has as its target His-GST-PARP7 (Homo sapiens (Human), UniProt Q7Z3E1). Put plainly: PARP7 biochemical assay. Conditions: read-out: PARP7 IC50.
The subject of assay [2] is NCI-H1373 (human lung adenocarcinoma) cells. The assay is described as follows: Cell proliferation assay (CellTiter-Glo), NCI-H1373. The class given is cell-based. Conditions: read-out: NCI-H1373 GI50, 6 days. On the technique in general: ATP-based viability assays read luminescence as a measure of living cells.
In assay [3] the target is PARP3 (Homo sapiens (Human), UniProt Q9Y6F1). Put plainly: PASTA biochemical PARP screening assay, PARP3. Conditions: read-out: IC50 PARP3.
The target in assay [4] is PARP12cat (Homo sapiens (Human), UniProt Q9H0J9). Put plainly: PASTA biochemical PARP screening assay, PARP12cat. Conditions: read-out: IC50 PARP12cat.
The target in assay [5] is GST-tagged PARP7 (Homo sapiens (Human), UniProt Q7Z3E1). The assay is described as follows: PASTA biochemical PARP screening assay, PARP7.

Turning to `CN(c1cncc(C#N)c1)C1CN(C(=O)c2cc(Cc3n[nH]c(=O)c4ccc(OC5CCC5)cc34)ccc2F)C1`, in assay [1], the IC50 was in the range of 50 to 100 nM. For the same molecule, the GI50 in assay [2] was over 5000 nM.
For `N#Cc1ccc(N2CCN(C(=O)c3cc(Cc4n[nH]c(=O)c5ccccc45)ccc3F)CC2)nc1`, the results for the IC50 in assay [3] and in assay [4] were 32 nM and over 3000 nM, respectively. Moreover, in assay [5], the “more potent against PARP7 compared to all other PARP family members” value is “at least 12 fold”.
As for `CN1CCN(C(=O)c2cc(Cc3n[nH]c(=O)c4ccc(Oc5ccc(C(N)=O)cc5)cc34)ccc2F)CC1`, in assay [1], the IC50 lay within 500 to 2000 nM.
